Columns and labels:
[1] = molecular target: IDH1^R132H homodimer enzyme (Homo sapiens, UniProt O75874, R132H); experiment: NADPH depletion assay, IDH1 R132H; details: read-out: IDH1^R132H IC50
Procedure: (§1) IDH mutated enzyme activity converting alpha-ketoglutarate to 2-hydroxyglutaric acid is measured using a NADPH depletion assay. In the assay the remaining cofactor is measured at the end of the reaction with the addition of a catalytic excess of diaphorase and resazurin, to generate a fluorescent signal in proportion to the amount of NADPH remaining. IDH1 WT enzyme as well as mutated isoforms IDH1^R132H, IDH1^R132C, and IDH^2R172K enzymes are commercially available proteins (see e.g. Sino Biological, Abcam, Active Motif or Creative BioMart).
(§2) IDH1^R132H homodimer enzyme are diluted to 8 nM, in 10 μL of Assay Buffer (150 mM NaCl, 50 mM Tris-HCl pH 7.6, 10 mM MgCl2, 0.001% Triton X-100, 4 mM β-mercaptoethanol); 0.2 uL of test compound, previously serially diluted 1 to 3, >10 experimental points from 1 mM in DMSO, is added and the mixture is incubated for 15 minutes at room temperature. The reaction is started with the addition of 10 μL of Substrate Mix (12 uM NADPH, 3.4 mM alpha-ketoglutarate in Assay Buffer) and the mixture is incubated for 60 minutes at room temperature. The reaction is terminated with the addition of 5 μl of Detection Buffer (100 μg/mL diaphorase, 30 μM resazurin, in IX Assay Buffer), and is incubated for 15 minute before reading on a ViewLux as platereader at Ex544/Em590.

Protein sequences, listed by entry. Tags and fused reporters are not part of them.
UniProt O75874, whole entry R132C: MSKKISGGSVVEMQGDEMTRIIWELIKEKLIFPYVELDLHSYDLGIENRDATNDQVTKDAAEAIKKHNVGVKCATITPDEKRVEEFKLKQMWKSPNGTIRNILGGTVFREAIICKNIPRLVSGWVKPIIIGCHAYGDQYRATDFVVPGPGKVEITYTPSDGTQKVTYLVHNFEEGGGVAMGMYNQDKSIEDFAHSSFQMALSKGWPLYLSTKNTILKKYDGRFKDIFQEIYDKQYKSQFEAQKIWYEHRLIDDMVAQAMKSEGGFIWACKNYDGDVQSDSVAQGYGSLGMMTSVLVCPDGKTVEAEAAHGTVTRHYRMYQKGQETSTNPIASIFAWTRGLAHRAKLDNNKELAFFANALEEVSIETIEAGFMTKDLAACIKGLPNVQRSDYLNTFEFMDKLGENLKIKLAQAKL
UniProt O75874, whole entry R132H: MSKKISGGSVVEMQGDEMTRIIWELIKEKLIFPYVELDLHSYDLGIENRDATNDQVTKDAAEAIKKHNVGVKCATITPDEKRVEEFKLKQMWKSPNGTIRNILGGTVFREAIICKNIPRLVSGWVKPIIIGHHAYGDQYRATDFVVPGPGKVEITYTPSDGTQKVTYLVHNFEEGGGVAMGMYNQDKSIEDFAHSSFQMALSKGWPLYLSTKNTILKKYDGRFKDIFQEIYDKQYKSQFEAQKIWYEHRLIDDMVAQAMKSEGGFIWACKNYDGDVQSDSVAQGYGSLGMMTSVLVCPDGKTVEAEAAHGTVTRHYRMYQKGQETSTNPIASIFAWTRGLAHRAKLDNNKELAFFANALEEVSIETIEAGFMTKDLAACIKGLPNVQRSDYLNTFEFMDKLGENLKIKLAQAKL

[2] = molecular target: IDH1^R132C (Homo sapiens, UniProt O75874, R132C); experiment: NADPH depletion assay, IDH1 R132C; details: read-out: IDH1^R132C IC50
Procedure: as §1
as §2, with “Ex544/Em590. […]” for “Ex544/Em590.”

Q: Which results are given for C[C@H](Nc1ncc2ccc(=O)n(CC(C)(C)CO)c2n1)c1ccc(-c2cnn(C)c2)cc1?
A: IC50 [1]: 400 nM; IC50 [2]: 202 nM

Source: patent publication US12018023B2 (NERVIANO MEDICAL SCIENCES S.R.L., priority 2018, dated 2024)
